According to patent publication US5280119A, “Heterocyclic amine-boranes, and method of inhibiting DNA topoisomerase activity and/or combatting inflammation, hyperlipidemia, and/or neoplasia using amine-borane compounds” (dated 1994):
Converted amounts (≈) assume the structure as drawn.

Chains of the proteins cited; added tags and fusions are not shown. Lines headed by an entry give the natural chain unless they say otherwise; changes in a name come on top.
UniProt P11388: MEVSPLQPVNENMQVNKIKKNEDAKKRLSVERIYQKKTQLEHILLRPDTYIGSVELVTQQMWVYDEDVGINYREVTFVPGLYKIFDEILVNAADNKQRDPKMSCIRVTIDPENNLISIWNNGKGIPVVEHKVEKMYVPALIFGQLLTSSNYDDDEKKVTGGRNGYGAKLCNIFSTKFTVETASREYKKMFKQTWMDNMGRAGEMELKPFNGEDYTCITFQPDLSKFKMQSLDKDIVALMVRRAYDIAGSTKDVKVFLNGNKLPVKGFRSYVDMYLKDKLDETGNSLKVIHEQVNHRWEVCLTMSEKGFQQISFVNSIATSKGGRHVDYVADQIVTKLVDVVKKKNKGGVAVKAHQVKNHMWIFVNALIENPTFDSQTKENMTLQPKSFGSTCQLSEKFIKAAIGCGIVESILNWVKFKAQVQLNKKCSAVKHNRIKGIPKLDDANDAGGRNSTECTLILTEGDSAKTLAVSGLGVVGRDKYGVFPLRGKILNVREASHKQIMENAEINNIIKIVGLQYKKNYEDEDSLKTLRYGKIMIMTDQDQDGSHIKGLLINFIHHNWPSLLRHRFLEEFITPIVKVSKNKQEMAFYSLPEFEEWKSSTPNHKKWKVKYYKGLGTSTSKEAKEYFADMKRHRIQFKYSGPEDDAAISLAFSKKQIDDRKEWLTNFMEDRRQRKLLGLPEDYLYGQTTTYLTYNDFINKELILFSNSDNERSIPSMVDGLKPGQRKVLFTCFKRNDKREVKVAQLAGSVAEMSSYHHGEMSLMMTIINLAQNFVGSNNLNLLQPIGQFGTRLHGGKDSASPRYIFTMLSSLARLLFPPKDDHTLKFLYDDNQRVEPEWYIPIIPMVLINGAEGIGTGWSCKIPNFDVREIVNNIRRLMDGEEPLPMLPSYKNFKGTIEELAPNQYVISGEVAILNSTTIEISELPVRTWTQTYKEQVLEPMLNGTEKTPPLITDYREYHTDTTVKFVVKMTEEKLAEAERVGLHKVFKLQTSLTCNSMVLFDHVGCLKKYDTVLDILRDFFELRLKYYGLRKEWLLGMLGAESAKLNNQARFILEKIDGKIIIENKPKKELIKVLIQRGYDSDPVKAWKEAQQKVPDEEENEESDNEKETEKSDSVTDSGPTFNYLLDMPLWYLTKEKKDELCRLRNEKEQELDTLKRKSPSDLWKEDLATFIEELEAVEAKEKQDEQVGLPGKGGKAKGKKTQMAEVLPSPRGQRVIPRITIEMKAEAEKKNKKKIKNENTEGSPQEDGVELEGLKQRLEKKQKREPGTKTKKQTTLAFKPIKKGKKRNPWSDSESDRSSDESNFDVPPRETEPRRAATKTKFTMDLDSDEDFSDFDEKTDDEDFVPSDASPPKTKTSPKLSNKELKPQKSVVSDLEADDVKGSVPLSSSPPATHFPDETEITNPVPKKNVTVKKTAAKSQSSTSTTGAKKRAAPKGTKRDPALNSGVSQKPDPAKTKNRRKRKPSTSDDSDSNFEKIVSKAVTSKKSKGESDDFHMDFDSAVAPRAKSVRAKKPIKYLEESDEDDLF

How the values were obtained:
[1] = system: P388 lymphocytic leukemia; experiment: Cytotoxicity, P388 lymphocytic leukemia; conditions: p388 cells
glioma EH 118 MG = experiment: Cytotoxicity, glioma EH 118 MG; conditions: eh 118 mg cells
[2] = system: Ehrlich ascites carcinoma; experiment: in vivo Ehrlich ascites carcinoma screen; conditions: 20 mg/kg/day I.P., CF1 male mice
[3] = Hypolipidemic screen in normal mice; conditions: CF1 male mice, IP, N = 6
[4] = system: human Tmolt3 acute lymphoblastic T cell leukemia; experiment: Cytotoxicity, Tmolt3; conditions: trypan blue exclusion
[5] = system: KB epidermoid nasopharynx; experiment: Cytotoxicity, KB epidermoid nasopharynx; conditions: for ED50 Cytotoxicity, Human KB: kb cells
[6] = system: HeLa-S^3 suspended cervical carcinoma; experiment: Cytotoxicity, HeLa-S3; conditions: hela-s3 cells
osteosarcoma TE418 = experiment: Cytotoxicity, osteosarcoma TE418; conditions: te418 cells
[7] = system: murine L1210 lymphoid leukemia; experiment: Cytotoxicity, L1210 lymphoid leukemia; conditions: trypan blue exclusion
Lewis lung carcinoma = experiment: In vivo Lewis lung carcinoma activity; conditions: 8 mg/kg/day I.P.
[8] = system: lung bronchogenic MB-9812; experiment: Cytotoxicity, lung bronchogenic MB-9812; conditions: concentration which inhibits 50% of cell growth
[9] = system: colorectal adenocarcinoma SW480; experiment: Cytotoxicity, colorectal adenocarcinoma SW480; conditions: for ED50 Cytotoxicity, Human Colon SW480: sw480 cells
[10] = Anti-inflammatory activity, carrageenan paw; conditions: CF1 Mice, 20 mg/kg × 2 (table head; b1373: 8 mg/kg i.p. 3 hours and 30 minutes before carrageenan)
[11] = molecular target: DNA topoisomerase II (HeLa) (Homo sapiens, UniProt P11388); experiment: DNA topoisomerase II inhibition (unknotting of knotted DNA); conditions: one hour reaction, agarose gel
[12] = Hypolipidemic screen in normal rats (serum lipids, body weight, food); conditions: Sprague Dawley male rats, 8 mg/kd/day orally (clofibrate 150 mg/kg/day)

Compound	ED50 Cytotoxicity, P388 Lymphocytic Leukemia [1]	ED50 Cytotoxicity, Human Glioma (glioma EH 118 MG)	Serum Cholesterol Day 9 ([3]; 8 Mg/kg/day)	Serum Cholesterol Day 16 ([3]; 8 Mg/kg/day)	Serum Triglycerides Day 16 ([3]; 8 Mg/kg/day)	ED50 Cytotoxicity, Human lymphocyte Tmolt3 [4]	ED50 Cytotoxicity, Human KB [5]	ED50 Cytotoxicity, Human HeLa-S^3 [6]	ED50 Cytotoxicity, Human Osteo-Sarcoma (osteosarcoma TE418)	ED50 Cytotoxicity, L1210 Lymphoid Leukemia [7]	ED50 Cytotoxicity, Human Lung Bronchogenic [8]	ED50 Cytotoxicity, Human Colon SW480 [9]	% of Control, anti-inflammatory (paw weight increase) [10]	other results
COC(=O)[BH2-][n+]1ccn(C)c1	5.63 µg/mL (≈ 36.6 µM)	1.715 µg/mL (≈ 11.1 µM)	72 ± 6% of Control	66 ± 6% of Control	92 ± 7% of Control	1.08 µg/mL (≈ 7.01 µM)	6.54 µg/mL (≈ 42.5 µM)	3.47 µg/mL (≈ 22.5 µM)	6.89 µg/mL (≈ 44.7 µM)	3.69 µg/mL (≈ 24 µM)	1.76 µg/mL (≈ 11.4 µM)	4.06 µg/mL (≈ 26.4 µM)	76 % of Control	inhibition of growth, in vivo Ehrlich ascites carcinoma [2]: 99%; T/C%, in vivo Lewis lung carcinoma (Lewis lung carcinoma): 152%
Cc1[nH]cc[n+]1[BH2-]C#N	4.47 µg/mL (≈ 37 µM)	2.06 µg/mL (≈ 17 µM)	89 ± 8% of Control	76 ± 6% of Control	68 ± 5% of Control	0.65 µg/mL (≈ 5.37 µM)	2.18 µg/mL (≈ 18 µM)	1.44 µg/mL (≈ 11.9 µM)	6.48 µg/mL (≈ 53.6 µM)	3.56 µg/mL (≈ 29.4 µM)	3.09 µg/mL (≈ 25.5 µM)	4.66 µg/mL (≈ 38.5 µM)	62 % of Control	inhibition of growth, in vivo Ehrlich ascites carcinoma [2]: 78%; activity in the KB nasopharynx screen (in words) ([5]; text summary of Table 4): good activity; T/C%, in vivo Lewis lung carcinoma (Lewis lung carcinoma): 163%
[BH3-][NH+]1CCOCC1	4.49 µg/mL (≈ 44.5 µM)	8.36 µg/mL (≈ 82.8 µM)				3.53 µg/mL (≈ 35 µM)	6.31 µg/mL (≈ 62.5 µM)	2.24 µg/mL (≈ 22.2 µM)	3.31 µg/mL (≈ 32.8 µM)	3.75 µg/mL (≈ 37.1 µM)	6.03 µg/mL (≈ 59.7 µM)	3.99 µg/mL (≈ 39.5 µM)	55 % of Control	Serum Cholesterol Day 9 ([3]; 20 Mg/kg/day): 67 ± 6% of Control; Serum Cholesterol Day 16 ([3]; 20 Mg/kg/day): 64 ± 5% of Control; Serum Triglycerides Day 16 ([3]; 20 Mg/kg/day): 74 ± 9% of Control; activity against human adenocarcinoma colorectal SW480 growth (in words) ([9]; text summary of Table 4): showed activity
O=C(O)[BH2-][NH+]1CCNCC1	10.23 µg/mL (≈ 71.1 µM)	2.14 µg/mL (≈ 14.9 µM)	77 ± 7% of Control	74 ± 4% of Control	76 ± 5% of Control	3.10 µg/mL (≈ 21.5 µM)	7.23 µg/mL (≈ 50.2 µM)	1.60 µg/mL (≈ 11.1 µM)	4.41 µg/mL (≈ 30.6 µM)	3.34 µg/mL (≈ 23.2 µM)	7.12 µg/mL (≈ 49.5 µM)	6.19 µg/mL (≈ 43 µM)	79 % of Control	Inhibitory Concentration, Topoisomerase II [11]: 100 µM
N#C[BH2-][NH+]1CCCCC1	4.49 µg/mL (≈ 36.2 µM)	4.93 µg/mL (≈ 39.8 µM)				2.85 µg/mL (≈ 23 µM)	7.74 µg/mL (≈ 62.4 µM)	2.35 µg/mL (≈ 19 µM)	2.97 µg/mL (≈ 24 µM)	3.83 µg/mL (≈ 30.9 µM)	5.41 µg/mL (≈ 43.6 µM)	6.32 µg/mL (≈ 51 µM)	77 % of Control	Serum Cholesterol Day 9 ([3]; 5 Mg/kg/day): 81 ± 8% of Control; Serum Cholesterol Day 16 ([3]; 5 Mg/kg/day): 66 ± 3% of Control; Serum Triglycerides Day 16 ([3]; 5 Mg/kg/day): 70 ± 7% of Control
CC[C@H](C)C(=O)O[C@H]1C[C@@H](C)C=C2C=C[C@H](C)[C@H](CC[C@@H]3C[C@@H](O)CC(=O)O3)[C@H]21														Serum Cholesterol Day 7 [12]: 85 ± 4% of Control; Serum Cholesterol Day 14 [12]: 82 ± 5% of Control; Serum Triglycerides Day 7 [12]: 91 ± 5% of Control; Serum Triglycerides Day 14 [12]: 86 ± 7% of Control
NC(=O)NO		2.27 µg/mL (≈ 29.8 µM)				3.18 µg/mL (≈ 41.8 µM)	5.29 µg/mL (≈ 69.6 µM)	1.96 µg/mL (≈ 25.8 µM)	7.57 µg/mL (≈ 99.5 µM)	2.67 µg/mL (≈ 35.1 µM)	7.33 µg/mL (≈ 96.4 µM)	4.76 µg/mL (≈ 62.6 µM)		
